Earlier results on one compound are cited in PMC4362760, “JAK2^V617F Drives Mcl-1 Expression and Sensitizes Hematologic Cell Lines to Dual Inhibition of JAK2 and Bcl-xL” (PLoS ONE, 2015).

This data set deals with Bcl-2. The conditions noted are these: cited from earlier work.

For the compound `CC1(C)CCC(c2ccc(Cl)cc2)=C(CN2CCN(c3ccc(C(=O)NS(=O)(=O)c4ccc(N[C@H](CCN5CCOCC5)CSc5ccccc5)c(S(=O)(=O)C(F)(F)F)c4)cc3)CC2)C1` [ABT-263], the Ki is under 1 nM.

In general, Ki refers to a measure of affinity in units of concentration, obtained from inhibition or displacement.
